Experimental findings from patent US20130029959A1, “COMPOSITIONS AND METHODS FOR THE TREATMENT OF CANCER” (Massachusetts Institute of Technology, priority 2011, published 2013) are described below.

Structures are written as SMILES.

Broadly, the IC50 is the midpoint of a concentration-inhibition curve.

Assay [1] concerns calf thymus DNA. Put plainly: Ethidium bromide DNA-binding competition, Scatchard analysis. More on the design: key: competitive (type A); non-competitive (type D); both (type B); No inhibition of ethidium binding is labeled as type C.
Assay [2] relates to normal lung fibroblast MRC5. Put plainly: MTT assay, MRC5 cells. The note with it: MRC5, 72-h incubation, Table 5. It is filed as cell-based, human. On the technique in general: Tetrazolium assays rely on reduction of a dye to a coloured formazan, in cell work by metabolically active cells.
The test system of assay [3] is human colon carcinoma HT29 cells. As to the kind of experiment: MTT assay, HT29 cells. Type of assay: cell-based. The note with it: HT29, 72-h incubation, Table 5.
In assay [4] the test system is human lung carcinoma A549 cells. As to the kind of experiment: MTT assay, A549 cells. Type of assay: cell-based. As to conditions: A549, 72-h incubation, Table 5.

For the compound `N.N.[Cl][Pt][Cl]` [cisplatin], the “type of inhibition of ethidium binding” value in assay [1] (12-h incubation period) and in assay [1] (1 min incubation period) was “C” each time.

In the case of `Cc1ccccn1.N.N.O=[N+]([O-])[O-].[Cl][Pt+]` [cis-[Pt(NH3)2 (2-methylpyridine)Cl]NO], the 50% inhibitory concentration (IC50) in assay [2] was 59.9 ± 4.2 µM; in assay [3], 63.8 ± 1.9 µM; in assay [4], 50.6 ± 1.7 µM.
